# Test results from article PMC8138772 (The Journal of Biological Chemistry, 2021).
# Amino acid sequences for entries named in this document (tags omitted). Residues count along the entry.
# UniProt P06756, 891-1048 partner limits assumed: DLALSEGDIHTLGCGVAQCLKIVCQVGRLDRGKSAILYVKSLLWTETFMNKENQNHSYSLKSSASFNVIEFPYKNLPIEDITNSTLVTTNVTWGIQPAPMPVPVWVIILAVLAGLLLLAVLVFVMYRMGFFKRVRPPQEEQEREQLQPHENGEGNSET
# UniProt P06756, 31-889 limits assumed: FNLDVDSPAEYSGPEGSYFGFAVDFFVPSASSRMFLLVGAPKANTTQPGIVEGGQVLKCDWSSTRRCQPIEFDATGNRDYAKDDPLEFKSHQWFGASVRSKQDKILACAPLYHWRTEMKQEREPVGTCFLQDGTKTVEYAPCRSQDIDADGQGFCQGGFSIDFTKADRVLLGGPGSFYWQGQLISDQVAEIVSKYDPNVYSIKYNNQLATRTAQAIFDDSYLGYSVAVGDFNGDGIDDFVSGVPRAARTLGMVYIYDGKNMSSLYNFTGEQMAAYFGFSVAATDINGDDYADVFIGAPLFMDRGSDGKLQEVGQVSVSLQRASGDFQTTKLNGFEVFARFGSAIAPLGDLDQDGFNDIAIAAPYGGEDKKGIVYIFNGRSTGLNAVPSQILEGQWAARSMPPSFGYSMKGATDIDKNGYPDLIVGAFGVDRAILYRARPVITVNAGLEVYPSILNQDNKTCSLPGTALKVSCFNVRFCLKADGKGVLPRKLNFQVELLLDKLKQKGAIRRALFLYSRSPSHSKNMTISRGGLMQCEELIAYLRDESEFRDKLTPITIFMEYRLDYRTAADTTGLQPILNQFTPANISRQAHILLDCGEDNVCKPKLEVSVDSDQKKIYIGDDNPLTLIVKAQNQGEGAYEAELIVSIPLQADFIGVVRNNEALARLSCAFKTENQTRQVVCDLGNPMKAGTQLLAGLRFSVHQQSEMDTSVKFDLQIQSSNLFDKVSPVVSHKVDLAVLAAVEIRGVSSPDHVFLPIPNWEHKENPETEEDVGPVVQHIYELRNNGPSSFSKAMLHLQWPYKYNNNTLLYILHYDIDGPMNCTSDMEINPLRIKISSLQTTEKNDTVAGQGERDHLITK
# UniProt P18564, 22-788 limits assumed: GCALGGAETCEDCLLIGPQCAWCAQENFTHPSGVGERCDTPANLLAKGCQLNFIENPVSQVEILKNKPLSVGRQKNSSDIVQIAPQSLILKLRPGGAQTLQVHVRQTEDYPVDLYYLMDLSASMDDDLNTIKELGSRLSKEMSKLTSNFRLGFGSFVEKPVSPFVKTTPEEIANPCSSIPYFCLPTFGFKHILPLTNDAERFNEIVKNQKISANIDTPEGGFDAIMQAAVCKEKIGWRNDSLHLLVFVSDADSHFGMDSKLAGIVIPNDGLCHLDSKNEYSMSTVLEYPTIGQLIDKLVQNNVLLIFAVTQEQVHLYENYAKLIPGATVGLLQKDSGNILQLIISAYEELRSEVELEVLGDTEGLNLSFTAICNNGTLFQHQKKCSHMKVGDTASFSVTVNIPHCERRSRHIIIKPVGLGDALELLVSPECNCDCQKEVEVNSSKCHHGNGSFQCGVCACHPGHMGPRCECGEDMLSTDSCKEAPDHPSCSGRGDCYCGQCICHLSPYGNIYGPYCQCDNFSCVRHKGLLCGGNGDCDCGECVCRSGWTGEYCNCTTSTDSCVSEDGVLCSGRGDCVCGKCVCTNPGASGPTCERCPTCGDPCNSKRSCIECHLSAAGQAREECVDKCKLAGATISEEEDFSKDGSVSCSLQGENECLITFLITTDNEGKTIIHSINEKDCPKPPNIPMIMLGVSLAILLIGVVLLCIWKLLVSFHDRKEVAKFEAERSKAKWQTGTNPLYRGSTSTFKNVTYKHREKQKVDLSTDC
# Test system: not listed separately
# Test: in vitro
# Conditions: mouse, serum
row,Compound,remaining at 24 h [%]
1,CC(C)C[C@@H]1NC(=O)[C@H](CC(=O)O)NC(=O)CNC(=O)[C@H](CCCNC(=N)N)NC(=O)[C@H](CC(C)C)NC(=O)[C@H](CC(N)=O)NC(=O)[C@@H]2CCCN2C(=O)[C@H](C(C)C)NC(=O)[C@@H](NC(=O)[C@H](CC(N)=O)NC(=O)CCCC[C@@H]2SC[C@@H]3NC(=O)N[C@@H]32)CSc2c(F)c(F)c(c(F)c2F)-c2c(F)c(F)c(c(F)c2F)SC[C@@H](C(=O)N[C@@H](CCCNC(N)=O)C(=O)N[C@H](C(=O)N[C@@H](CCCCN)C(=O)N[C@H](C)C(N)=O)[C@@H](C)O)NC(=O)[C@H](C(C)C)NC(=O)[C@H](CCCCN)NC(=O)[C@H](CCC(N)=O)NC(=O)[C@H](C)NC(=O)[C@H](CC(C)C)NC(=O)[C@H](C(C)C)NC(=O)[C@H](CCC(N)=O)NC1=O [C2C18 CitTKAD DFBP],10.4

# Target: K562 αvβ6:mCherry cells (αvβ6 integrin) (Homo sapiens, UniProt P06756+P18564)
# Test: biochemical
# Assay type: binding
# Conditions: not given
row,Compound,Kd [nM]
1,CC(C)C[C@@H]1NC(=O)[C@H](CC(=O)O)NC(=O)CNC(=O)[C@H](CCCNC(=N)N)NC(=O)[C@H](CC(C)C)NC(=O)[C@H](CC(N)=O)NC(=O)[C@@H]2CCCN2C(=O)[C@H](C(C)C)NC(=O)[C@@H](NC(=O)[C@H](CC(N)=O)NC(=O)CCCC[C@@H]2SC[C@@H]3NC(=O)N[C@@H]32)CSc2c(F)c(F)c(c(F)c2F)-c2c(F)c(F)c(c(F)c2F)SC[C@@H](C(=O)N[C@H](CCCNC(=N)N)C(=O)N[C@H](C(=O)N[C@@H](CCCCN)C(=O)N[C@H](C)C(N)=O)[C@@H](C)O)NC(=O)[C@H](C(C)C)NC(=O)[C@H](CCCCN)NC(=O)[C@H](CCC(N)=O)NC(=O)[C@H](C)NC(=O)[C@H](CC(C)C)NC(=O)[C@H](C(C)C)NC(=O)[C@H](CCC(N)=O)NC1=O [C2C18 RDTKAD DFBP],55.3 ± 6.06
2,"CC(C)C[C@H](NC(=O)[C@H](CC(=O)O)NC(=O)CNC(=O)[C@H](CCCNC(=N)N)NC(=O)[C@H](CC(C)C)NC(=O)[C@H](CC(N)=O)NC(=O)[C@@H]1CCCN1C(=O)[C@@H](NC(=O)[C@H](C)NC(=O)[C@H](CC(N)=O)NC(=O)CCCC[C@@H]1SC[C@@H]2NC(=O)N[C@@H]21)C(C)C)C(=O)N[C@@H](CCC(N)=O)C(=O)N[C@H](C(=O)N[C@@H](CC(C)C)C(=O)N[C@@H](C)C(=O)N[C@@H](CCC(N)=O)C(=O)N[C@@H](CCCCN)C(=O)N[C@H](C(=O)N[C@@H](C)C(=O)N[C@@H](CCCNC(=N)N)C(=O)N[C@H](C(=O)N[C@@H](CCCCN)C(N)=O)[C@@H](C)O)C(C)C)C(C)C [A20FMDV2, reference compound]",63.1 ± 20.6
3,CC(C)C[C@@H]1NC(=O)[C@H](CC(=O)O)NC(=O)CNC(=O)[C@H](CCCNC(=N)N)NC(=O)[C@H](CC(C)C)NC(=O)[C@H](CC(N)=O)NC(=O)[C@@H]2CCCN2C(=O)[C@H](C(C)C)NC(=O)[C@@H](NC(=O)[C@H](CC(N)=O)NC(=O)CCCC[C@@H]2SC[C@@H]3NC(=O)N[C@@H]32)CSc2c(F)c(F)c(c(F)c2F)-c2c(F)c(F)c(c(F)c2F)SC[C@@H](C(=O)N[C@@H](CCCNC(N)=O)C(=O)N[C@H](C(=O)N[C@@H](CCCCN)C(=O)N[C@H](C)C(N)=O)[C@@H](C)O)NC(=O)[C@H](C(C)C)NC(=O)[C@H](CCCCN)NC(=O)[C@H](CCC(N)=O)NC(=O)[C@H](C)NC(=O)[C@H](CC(C)C)NC(=O)[C@H](C(C)C)NC(=O)[C@H](CCC(N)=O)NC1=O [C2C18 CitTKAD DFBP],75.8 ± 24
4,CC(C)C[C@@H]1NC(=O)[C@H](CC(=O)O)NC(=O)CNC(=O)[C@H](CCCNC(=N)N)NC(=O)[C@H](CC(C)C)NC(=O)[C@H](CC(N)=O)NC(=O)[C@@H]2CCCN2C(=O)[C@H](C(C)C)NC(=O)[C@@H](NC(=O)[C@H](CC(N)=O)NC(=O)CCCC[C@@H]2SC[C@@H]3NC(=O)N[C@@H]32)CSc2c(F)c(F)c(c(F)c2F)-c2c(F)c(F)c(c(F)c2F)SC[C@@H](C(=O)N[C@@H](CCCNC(=N)N)C(=O)N[C@H](C(=O)N[C@@H](CCCCN)C(N)=O)[C@@H](C)O)NC(=O)[C@H](C(C)C)NC(=O)[C@H](CCCCN)NC(=O)[C@H](CCC(N)=O)NC(=O)[C@H](C)NC(=O)[C@H](CC(C)C)NC(=O)[C@H](C(C)C)NC(=O)[C@H](CCC(N)=O)NC1=O [C2C18 DFBP],70.8 ± 20.3
5,CC(C)C[C@@H]1NC(=O)[C@H](CC(=O)O)NC(=O)CNC(=O)[C@H](CCCNC(=N)N)NC(=O)[C@H](CC(C)C)NC(=O)[C@H](CC(N)=O)NC(=O)[C@@H]2CCCN2C(=O)[C@H](C(C)C)NC(=O)[C@H](C)NC(=O)[C@@H](NC(=O)CCCC[C@@H]2SC[C@@H]3NC(=O)N[C@@H]32)CSc2c(F)c(F)c(c(F)c2F)-c2c(F)c(F)c(c(F)c2F)SC[C@@H](C(=O)N[C@@H](CCCNC(=N)N)C(=O)N[C@H](C(=O)N[C@@H](CCCCN)C(N)=O)[C@@H](C)O)NC(=O)[C@H](C(C)C)NC(=O)[C@H](CCCCN)NC(=O)[C@H](CCC(N)=O)NC(=O)[C@H](C)NC(=O)[C@H](CC(C)C)NC(=O)[C@H](C(C)C)NC(=O)[C@H](CCC(N)=O)NC1=O [C1C18 DFBP],85.3 ± 18.6
